This is a sample that favours compounds with a hit; in the whole collection about 16% have one here.
DT40 TDP1 no CPT = qHTS for Inhibitors of human tyrosyl-DNA phosphodiesterase 1 (TDP1): qHTS in cells in absence of CPT. DT40 Tdp1-/- hTDP1 cells, no CPT, ATP luminescence, 48 h. Potency, µM (highest dose often 46.2 µM), for inactives: at the top dose activity change, negative = growth inhibition, most hits filed as inhibitors. 420,000 tested, 15% active. AID 686978, 2013; further: potency means the concentration at half of the fitted maximal effect; on the % scale 0 is the no-effect control and ±100 the full control effect; nearly all actives have a fitted effect of over 55% in size
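DT40 Tdp1-/-;hTDP1 cells, no CPT (DMSO vehicle only), 400 cells/well; compounds pin-transferred; ≥48 hr, 37 °C; CellTiter-Glo 30 min RT dark, luminescence read.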
uPA generation = inhibitors of cell surface uPA generation. cell surface uPA generation assay, qHTS. Potency, µM (top dose mostly 38.3 µM), inactives show at the top dose activity change, negative = inhibition, most hits filed as inhibitors. 330,000 tested, 0.31% active. AID 540303; active means well fitted inhibition curve with a large enough effect; inconclusive means small, poorly fitted or top-dose-only effect; inactive means no such curve, though single readings can be large or run the other way; tested in mouse RAW 264.7 cells; further: potency means the concentration at half of the fitted maximal effect; on the % scale 0 is the no-effect control and ±100 the full control effect; nearly all actives have a fitted effect of over 55% in size
DT40 TDP1 CPT = DT40-hTDP1 cell growth loss with CPT; chicken DT40 Tdp1-/-;hTDP1 cells + 20 nM CPT, ATP luminescence, 48 h; 420,000 tested, 12% active; Potency, µM (titrated, usually from 46.2 µM), for inactives: at the top dose activity change, negative = growth inhibition, usual class: inhibitors; AID 686979; further: potency means the concentration at half of the fitted maximal effect; on the % scale 0 is the no-effect control and ±100 the full control effect; nearly all actives have a fitted effect of over 55% in size
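Chicken DT40 Tdp1-/- cells complemented with human TDP1, 400 cells/well, exposed to compounds plus 20 nM camptothecin for at least 48 h at 37 C; viability read as ATP content by CellTiter-Glo luminescence.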
TDP1 block = inhibitors of human tyrosyl-DNA phosphodiesterase TDP1. recombinant TDP1, AlphaScreen DNA substrate cleavage. 350,000 tested, 0.28% active. AID 485290. Q9NUW8. Potency, µM (highest dose often 130 µM), without a hit: at the highest dose activity change, negative = inhibition, actives largely listed as inhibitors; further: potency means the concentration at half of the fitted maximal effect; on the % scale 0 is the no-effect control and ±100 the full control effect; nearly all actives have a fitted effect of over 40% in size
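E. coli-derived human Tdp1, 1 nM final. Cpd preinc 15 min RT; substrate 15 nM final, 5 min RT; AS bead mix 10 ug/ml final, 10 min RT. Signal loss = tyrosine-FITC cleavage. No-enzyme wells = max signal.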
miR-21 FLuc = raises the signal of a miR-21 reporter | HeLa miR-21 FLuc reporter, luciferase, 48 h | Potency, µM (highest dose often 38.3 µM), without a hit: at the top dose reporter change, positive = more light | 340,000 tested, under 10 active; active = well fitted rising curve with a large enough effect; inconclusive = small, poorly fitted or top-dose-only effect; inactive = no such curve, though single readings can be large or run the other way;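 note: % of control where 0% means no effect; miR-21 action dims this reporter so a rising signal means less miR-21 action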
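Using DMEM plus 10% FBS, HeLa miR-21-FLuc cells are incubated with test compounds (final up to about 40uM) for 48 hours; firefly luciferase signal is then imaged following reagent-mediated lysis.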
* marks the source's active call; other numbers are inactive results; ? = inconclusive; / = no result given; [ ] = another dose, or the depositor's remark. Unless noted, the call rests on the fitted dose curve; in most records, active means well fitted curve in the direction sought with a large enough effect; inconclusive means small, poorly fitted or top-dose-only effect, or another doubt; inactive means no such curve, though single readings can be large; an effect the other way counts as inactive or inconclusive.

cpd | canonical_smiles | DT40 TDP1 no CPT | uPA generation | DT40 TDP1 CPT
1 | O=[N+]([O-])c1ccc(N2CCCC2)c2ncccc12 | 4% | 0% | -10%
2 | O=[N+]([O-])c1ccc(N2CCCC2)c(F)c1Br | 23µM* | -4% | 13µM*
3 | O=C1Nc2cc(C(=O)N3CCC4(CC3)OCCO4)ccc2NC1CSCc1cccc(F)c1 (stereo unspecified) | / | / | /
4 | COc1ccc(P2(=O)Nc3ccccc3N2)cc1 | ? | -6% | 15µM*
5 | O=c1c2ccccc2nc(-c2ccc([N+](=O)[O-])cc2)n1-c1ccccc1 | -4% | 0% | -26%
6 | COc1ccc(-n2c(-c3ccccc3Br)nc3ccccc3c2=O)cc1 | 21µM* | -3% | ?
7 | Cc1cccc(-n2c(-c3ccc([N+](=O)[O-])cc3)nc3ccccc3c2=O)c1 | 8.2µM* | -5% | ?
8 | COc1ccc(-c2nc3ccccc3c(=O)n2-c2ccc(OC)cc2)cc1 | ? | 2% | ?
9 | Cc1nc2cc([N+](=O)[O-])ccc2c(=O)n1-c1cccc(Br)c1 | 18µM* | -10% | ?
10 | Cc1cccc(-n2c(CC3C(=O)Nc4ccc(C)cc43)nc3ccccc3c2=O)c1 (stereo unspecified) | 21µM* | / | ?
11 | Cc1nc2ccccc2c(=O)n1-c1cccc([N+](=O)[O-])c1 | -7% | 12% | 5%
12 | C/C=C(\CC)C(=O)NC(N)=O | -13% | / | 7%
13 | CCS(=O)CCSP(=O)(OC)OC (stereo unspecified) | -5% | / | 12%
14 | Cc1nc2ccccc2c(=O)n1-c1ccc(C(=O)O)cc1 | 24% | 4% | -9%
15 | COc1ccc(-n2c(Cc3ccccc3)nc3ccccc3c2=O)cc1 | ? | 14% | -46%

cpd | TDP1 block | miR-21 FLuc
1 | 8% | -4%
2 | 4% | -2%
3 | 2% | 10%
4 | -5% | -33%
5 | 1% | -3%
6 | / | 4%
7 | -3% | -4%
8 | 4% | -11%
9 | / | /
10 | 2% | 8%
11 | / | -9%
12 | / | /
13 | 10% | /
14 | 3% | -1%
15 | 1% | -10%

3 of the compounds above, in transposed form.
(14) Cc1nc2ccccc2c(=O)n1-c1ccc(C(=O)O)cc1
(13) CCS(=O)CCSP(=O)(OC)OC (stereo unspecified)
(15) COc1ccc(-n2c(Cc3ccccc3)nc3ccccc3c2=O)cc1

Screen / compound no.	14	13	15
DT40 TDP1 no CPT	24%	-5%	?
uPA generation	4%	/	14%
DT40 TDP1 CPT	-9%	12%	-46%
TDP1 block	3%	10%	1%
miR-21 FLuc	-1%	/	-10%

Remaining list, next part.
cpd | canonical_smiles | DT40 TDP1 no CPT | uPA generation | DT40 TDP1 CPT
16 | COc1ccc(-n2c(-c3ccccc3F)nc3ccccc3c2=O)cc1 | 21µM* | / | ?
17 | O=c1c2ccccc2nc(N2CCCC2)n1-c1ccccc1 | 15µM* | 0% | ?
18 | O=c1c2ccccc2nc(-c2ccccc2F)n1-c1ccccc1 | 7.3µM* | 4% | ?
19 | O=c1c2ccccc2nc(-c2ccccc2)n1-c1ccccc1 | 8.2µM* | 8% | ?
20 | CC(=O)C1CCC2C3CCC4CC(C)(O)CCC4(C)C3CCC12C (stereo unspecified) | / | / | /
21 | O=c1c2ccccc2nc(Cc2ccccc2)n1-c1cccc(O)c1 | 21µM* | 3% | 15µM*
22 | CCCC12CN3CC(CCC)(CN(C1)C3c1ccccn1)C2=O (stereo unspecified) | ? | / | ?
23 | CC(C)(C)c1[nH]nc2c1C(c1ccoc1)C(C#N)=C(N)O2 (stereo unspecified) | ? | 6% | 0%
24 | Cc1ccc(C2=NC(C)(C)N3C2C3c2ccc([N+](=O)[O-])cc2)cc1 (stereo unspecified) | 21µM* | 1% | ?
25 | O=C(c1cc(-c2cccnc2)nc2ccccc12)N1CCC2(CC1)OCCO2 | -25% | / | -8%
26 | COc1ccc(C2(c3cccc(O)c3OC)CCN(C(C)=O)CC2)cc1O | / | 4% | /
27 | C=C(C)C1Cc2c(ccc3c2OC2COc4cc(OC)c(OC)cc4C2C3=O)O1 (stereo unspecified) | 0.1µM* | / | 0.052µM*
28 | C=C(C)[C@H]1Cc2c(ccc3c2O[C@@H]2COc4cc(OC)c(OC)cc4[C@@H]2C3=O)O1 | 0.24µM* | / | 0.24µM*
29 | Cc1ccc(S(=O)(=O)N2Cc3cc(-c4cccc(F)c4)ccc3-n3nncc3C2)cc1 | -22% | / | -4%
30 | O=C(CCc1nnc2ccc(NCc3ccccc3Cl)nn12)N1CCC2(CC1)OCCO2 | -3% | -6% | 0%

cpd | TDP1 block | miR-21 FLuc
16 | / | /
17 | -1% | -2%
18 | 2% | 4%
19 | / | 13%
20 | 8% | /
21 | 0% | -22%
22 | 7% | -4%
23 | -9% | -1%
24 | -1% | -5%
25 | 2% | -1%
26 | / | /
27 | 14% | /
28 | ? | /
29 | / | /
30 | 3% | -13%

Other results
cpd | canonical_smiles | DT40 TDP1 no CPT | uPA generation | DT40 TDP1 CPT
31 | CCCCn1nnnc1C(c1ccnc2ccccc12)N1CCC2(CC1)C(=O)NCN2c1ccccc1 (stereo unspecified) | ? | / | 16µM*
32 | COc1ccc(C(c2nnnn2-c2ccc3c(c2)OCCO3)N2CCC3(CC2)C(=O)NCN3c2ccccc2)cc1 (stereo unspecified) | 26µM* | / | ?
33 | O=C1NCN(c2ccccc2)C12CCN(C(c1ccnc3ccccc13)c1nnnn1-c1ccc3c(c1)OCCO3)CC2 (stereo unspecified) | 16µM* | / | ?
34 | CCC(c1nnnn1-c1ccc2c(c1)OCCO2)N1CCC2(CC1)C(=O)NCN2c1ccccc1 (stereo unspecified) | 18µM* | / | 18µM*
35 | O=C1NCN(c2ccccc2)C12CCN(C(CCc1ccccc1)c1nnnn1-c1ccc3c(c1)OCCO3)CC2 (stereo unspecified) | -113% | / | ?
36 | Cc1ccc(N2C(=O)NC(=O)/C(=C/c3ccc(OC(=O)c4cccs4)cc3)C2=O)cc1 | -1% | 2% | -1%
37 | CCOC(=O)c1ccccc1NC(=O)N(Cc1ccc(CC)cc1)Cc1cn[nH]c1-c1ccc(OC)cc1 | 15µM* | / | ?
38 | C[C@@H](C(=O)OC1C[C@H]2CC[C@@H](C1)N2C)c1ccc(Br)cc1 (stereo partly specified) | 27µM* | / | 30µM*
39 | Cc1cc(C)cc(C(=O)OC2C[C@H]3CC[C@@H](C2)N3C)c1 (stereo partly specified) | 19µM* | / | 24µM*
40 | CN1C2CCC1CC(OC(=O)c1cc(Cl)cc(Cl)c1)C2 (stereo unspecified) | ? | -6% | 15µM*
41 | Cc1cc(C)cc(C(=O)OC2CC3CCC(C2)N3C)c1 (stereo unspecified) | / | / | /
42 | CN1CCc2cc3c(cc2C1C1OC(=O)c2c1ccc1c2OCO1)OCO3 (stereo unspecified) | -5% | / | 3%
43 | CCCCC(=O)Nc1c(C(=O)N2CCN(c3ccccc3F)CC2)oc2ccccc12 | 9.2µM* | / | 15µM*
44 | CCOc1ccc(CCNC(=O)c2cc3c(-c4cccc(OC)c4)nn(C)c3s2)cc1OCC | 18µM* | / | ?
45 | O=C(O)[C@@H]1CCN1 | / | / | /
46 | CC(C)N(Cc1nccn1C)C(=O)CCc1nnc(CCCc2ccccc2)o1 | ? | -4% | -1%
47 | O=C(Oc1ccc2ccc(OC(=O)N3CCCCCC3)cc2c1)N1CCCCCC1 | 21µM* | 3% | 12µM*

cpd | TDP1 block | miR-21 FLuc
31 | / | /
32 | / | /
33 | / | /
34 | / | /
35 | / | /
36 | / | 0%
37 | 11% | -2%
38 | 4% | /
39 | 10%[56.1 µM] | /
40 | 9%[56.1 µM] | -14%
41 | 6% | /
42 | 9% | /
43 | 11% | 21%
44 | -2% | 29%
45 | 6%[56.1 µM] | /
46 | 3% | -56%
47 | -3% | -13%

Some of the entries above in another layout.
14) Cc1nc2ccccc2c(=O)n1-c1ccc(C(=O)O)cc1
  DT40 TDP1 no CPT: 24%; uPA generation: 4%; DT40 TDP1 CPT: -9%; TDP1 block: 3%; miR-21 FLuc: -1%

15) COc1ccc(-n2c(Cc3ccccc3)nc3ccccc3c2=O)cc1
  DT40 TDP1 no CPT: ?; uPA generation: 14%; DT40 TDP1 CPT: -46%; TDP1 block: 1%; miR-21 FLuc: -10%

Screens deposited in PubChem by National Center for Advancing Translational Sciences (NCATS).
